Legend:
[1] = system: C[C@@H](O)[C@H]1C(=O)N2C(C(=O)O)=C(SCCNC=N)C[C@H]12; experiment: Activity of Pseudomonas aeruginosa beta-lactamase VIM-2 by spectrophotometry; conditions: 81-11963
Summary of the method: (§1)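 Recombinant enzyme was expressed in E. coli BL21(DE3) from pET-26b and purified from the periplasm to >99%, with concentration taken from A280. Hydrolysis was followed spectrophotometrically at 25°C in 50 mM sodium cacodylate pH 7.0 with 100 μM ZnCl2 and 0.1 mg/ml BSA. Km and kcat came from initial velocity versus substrate concentration. Some Km values were taken as competitive Ki against nitrocefin reporter.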

[2] = system: C[C@@H](O)[C@H]1C(=O)N2C(C(=O)O)=C(SCCNC=N)C[C@H]12; experiment: Ratio of Kcat to Km for Pseudomonas aeruginosa beta-lactamase VIM-2 by spectrophotometry; conditions: 81-11963; summary of the method: as §1

How did the Km [1] turn out when “Beta-lactamase VIM-2 (Pseudomonas aeruginosa) (from UniProt Q9K2N0)” was run?
Its Km is 9 µM.

And the kcat [1]?
Its kcat is 34 s⁻¹.

And the kcat/Km [2]?
Its kcat/Km is 3.8e+06 M⁻¹ s⁻¹.
